In patent EP4522274B1, “THIOSEMICARBAZONE COMPLEX, PROCESS OF MANUFACTURE, COMPOSITION AND USE THEREOF IN THE TREATMENT OF COVID-19” (dated 2026):

Experiments:
BEAS-2B cells [1] = experiment: Wound healing test (scratch); conditions: 10 µM
Experimental: Wound healing test was performed to investigate the wound healing effect of the complex compound shown with formula I in BEAS-2B cells. BEAS-2B cells were inoculated into a 12-well cell culture dish of 10^6 cells. After 24 hours, the complex was incubated at a concentration of 10 µM for 24 hours. After incubation with the substances, 5 ng/ml TNF-α was added for inflammation and incubated for 24 hours. After approximately 24 hours, a wound was created with a 10 µL micro pipette tip on the surface, which filled the surface of the cell culture container to which they were attached to almost 100%. While creating the wound, the pipette tip was drawn at a constant speed from one end to the other on the cell culture dish in one go. BEAS-2B cells without substance and TNF-α incubation were used as control group. Wound healing activity was determined by visualizing the wound line with phase contrast microscope at 0, 24 and 48 hours and comparing with the control group. […] The improvement rates at 24 and 48 hours are shown in Figure 6 viewed under the microscope and in Figures 7 and 8, respectively.

BEAS-2B cells [2] = experiment: MTT cell viability; conditions: 48 hours
Experimental: The effect of the complex compound represented by the formula I on BEAS-2B cells, the human bronchial epithelial cell line, was investigated. The effect of the synthesized complex compound on cell viability at concentrations of 1,10, 50, 100, 200, 300 µM was measured by the MTT (3-(4,5-dimethylthiazol-2yl)-2,5-diphenyl tetrazolium bromide) method. 10 µl of the substances were added to 96-well plates at a concentration of 1.10, 50, 100, 200, and 300 µM, respectively. Then, 90 µl of BEAS-2B cells prepared with 10^5 cells/ml were added to the 96-well plate, incubated at 37°C, and the effects of cell viability after 48 hours were examined. After 48 hours incubations, 10 µl of 5 mg/ml MTT in freshly prepared phosphate buffer saline (PBS) was added to the wells and incubated for 3 hours. Dimethyl sulfoxide (DMSO) was added to dissolve the formazan crystals formed by reduction of MTT in living cells. After the solution was kept in the dark for 1 night, it was measured at 570 nm in the spectrometer the next day. The absorbance value of the DMSO control was subtracted from the absorbance of the other wells. Cell viability was calculated by comparison with control cells according to the following equation: %Cell Viability = (1−absorbance of the wells incubated with the complex compound)/(absorbance of controls) × 100 [formula]

IL-8 gene expression = experiment: IL-8 mRNA gene expression by qRT-PCR, with TNF-α inflammation model
Experimental: In order to understand the anti-inflammatory effects of the complex compound shown with formula I, an inflammation model was created in BEAS-2B cells with TNFα cytokine. 24 hours after inoculating BEAS-2B cells into 6-well plates at 3x10^6/3ml, the complex was incubated for 24 hours with concentrations of 10, 50, 100 µM. After incubation with the substances, 5 ng/ml TNF-α was added according to the experimental groups and incubated for 24 hours. After incubation, RNA isolation was performed using the kit (RNeasy Mini Kit of BEAS-2B cells, Qiagen). Complementary DNA (cDNA) was synthesized from 500 ng RNA with the kit (All-In-One 5X RT MasterMix) by measuring the concentrations of the isolated RNAs. IL-8 mRNA gene expression level in BEAS-2B cells incubated with agents and TNF-α was analysed by Real Time Polymerase Chain Reaction (qRT-PCR) method using kit (BrightGreen 2X qPCR MasterMix-ROX). IL-8 mRNA gene expression level was normalized by glyceraldehyde 3-phosphate dehydrogenase (GAPDH). Primer sequences are given in the sequence list as forward primer SEQ ID NO.1 and reverse primer as SEQ ID NO.2. The effect of the complex compound against IL-8 gene expression was examined.

Substance: N^1-1,1,1-Trifluoroacetylacetone-N^4-4-methoxysalicylidene-S-methylthiosemicarbazidato-zinc(II)
- healing rate compared to the control (BEAS-2B cells [1]; 24th hour after wound formation): higher
- healing rate compared to the control (BEAS-2B cells [1]; 48th hour after wound formation): higher
- wound healing effect in the inflammation model compared to the control (BEAS-2B cells [1]; inflammation induced by 5 ng/ml TNF α): higher rate of wound healing effect
- cell viability (BEAS-2B cells [2]; 200 µM): 53.69%
- cell viability (BEAS-2B cells [2]; 300 µM): 41.76%
- effect on cell viability at low doses (BEAS-2B cells [2]; low doses): proliferative effect
- IL-8 gene expression in inflammation model (IL-8 gene expression; BEAS-2B, 5 ng/ml TNF-α for 24 hours after incubation with complex, Figure 5): suppresses IL-8 gene expression at very high rates
- effect against IL-8 gene expression (IL-8 gene expression; BEAS-2B, 10, 50, 100 µM, 24 hours, normalized by GAPDH): suppress IL-8 gene expression very highly
